Target: T1, Type II NADH dehydrogenase (NDH-2, NdhC) (Staphylococcus aureus, UniProt Q2FZV7)
T1 sequence (Q2FZV7 1-402): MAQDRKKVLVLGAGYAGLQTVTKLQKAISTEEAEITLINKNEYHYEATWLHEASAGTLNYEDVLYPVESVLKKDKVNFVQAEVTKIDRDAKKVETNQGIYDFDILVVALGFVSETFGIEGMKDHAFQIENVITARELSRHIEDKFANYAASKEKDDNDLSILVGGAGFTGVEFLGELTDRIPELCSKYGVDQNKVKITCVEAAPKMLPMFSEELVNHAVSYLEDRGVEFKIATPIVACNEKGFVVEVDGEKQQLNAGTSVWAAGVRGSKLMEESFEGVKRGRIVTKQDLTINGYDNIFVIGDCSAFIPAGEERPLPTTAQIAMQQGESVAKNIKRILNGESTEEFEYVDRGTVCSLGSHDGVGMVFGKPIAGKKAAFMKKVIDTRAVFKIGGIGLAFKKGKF
Assay: biochemical
Set-up: gene SAOUHSC_00878

Q: With O=c1c(O)c(-c2cc(O)c(O)c(O)c2)oc2cc(O)cc(O)c12 [Myricetin, 3, 3′, 4′, 5, 5′, 7-hexahydroxy flavone] as the compound, how does the IC50 read?
A: 2000 nM

From paper PMC11124336, “Myricetin Acts as an Inhibitor of Type II NADH Dehydrogenase from Staphylococcus aureus” (Molecules, 2024)
